This note sets out measurements from patent US20250314639A1.

Chains of the proteins cited; added tags and fusions are not shown.
UniProt P03372, whole entry: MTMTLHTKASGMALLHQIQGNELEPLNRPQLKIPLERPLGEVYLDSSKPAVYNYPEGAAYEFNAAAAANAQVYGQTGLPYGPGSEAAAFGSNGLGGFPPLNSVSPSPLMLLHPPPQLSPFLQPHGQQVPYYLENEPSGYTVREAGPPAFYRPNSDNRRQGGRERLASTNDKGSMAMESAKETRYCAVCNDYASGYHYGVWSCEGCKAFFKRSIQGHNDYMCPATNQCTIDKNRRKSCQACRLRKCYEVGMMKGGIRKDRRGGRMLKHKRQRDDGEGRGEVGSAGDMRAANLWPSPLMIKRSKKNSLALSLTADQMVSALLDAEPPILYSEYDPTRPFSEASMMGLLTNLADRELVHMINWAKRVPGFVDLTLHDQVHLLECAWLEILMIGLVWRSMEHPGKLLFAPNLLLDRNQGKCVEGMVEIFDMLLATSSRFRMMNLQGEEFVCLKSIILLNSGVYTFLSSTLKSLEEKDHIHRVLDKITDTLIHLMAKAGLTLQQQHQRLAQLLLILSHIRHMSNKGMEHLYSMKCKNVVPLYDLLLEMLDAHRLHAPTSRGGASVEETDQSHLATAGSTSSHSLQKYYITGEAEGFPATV

One assay has as its target T1, ER (Homo sapiens, UniProt P03372).
T1 construct: expressed in transfected cells; host or cells: U2OS
Briefly: residence time imaging of ER-Halo cells (track length survival). Type of assay: cell-based. The note with it: track length distribution, versus DMSO or other ER modulators.

The next assay deals with T2, PR (Homo sapiens, UniProt P06401).
T2 construct: expressed in transfected cells; host or cells: U2OS
T2 sequence (P06401 1-933): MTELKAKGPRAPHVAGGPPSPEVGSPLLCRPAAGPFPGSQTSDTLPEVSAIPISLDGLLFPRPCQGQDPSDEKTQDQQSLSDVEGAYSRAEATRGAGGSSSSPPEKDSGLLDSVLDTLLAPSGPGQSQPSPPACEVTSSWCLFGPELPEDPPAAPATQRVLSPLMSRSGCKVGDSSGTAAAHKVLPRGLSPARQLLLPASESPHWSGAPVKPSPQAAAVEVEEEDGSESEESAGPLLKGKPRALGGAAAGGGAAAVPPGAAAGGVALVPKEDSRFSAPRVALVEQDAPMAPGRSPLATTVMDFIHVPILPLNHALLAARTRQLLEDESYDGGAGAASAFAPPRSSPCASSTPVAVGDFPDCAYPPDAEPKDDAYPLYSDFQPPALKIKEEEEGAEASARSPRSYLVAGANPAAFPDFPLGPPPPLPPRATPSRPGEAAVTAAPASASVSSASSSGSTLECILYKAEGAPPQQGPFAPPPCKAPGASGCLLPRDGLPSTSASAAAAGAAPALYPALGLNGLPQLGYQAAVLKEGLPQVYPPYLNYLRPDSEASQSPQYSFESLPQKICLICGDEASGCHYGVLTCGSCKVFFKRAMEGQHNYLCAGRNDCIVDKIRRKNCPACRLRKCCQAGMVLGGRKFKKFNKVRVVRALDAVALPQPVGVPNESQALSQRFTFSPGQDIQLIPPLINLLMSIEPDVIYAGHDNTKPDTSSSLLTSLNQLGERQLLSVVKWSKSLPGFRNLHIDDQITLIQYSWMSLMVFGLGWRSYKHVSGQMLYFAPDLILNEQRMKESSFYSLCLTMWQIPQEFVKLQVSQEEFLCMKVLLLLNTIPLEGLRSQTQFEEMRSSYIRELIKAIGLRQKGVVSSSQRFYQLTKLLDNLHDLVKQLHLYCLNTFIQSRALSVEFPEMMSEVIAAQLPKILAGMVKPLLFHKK
Briefly: htSMT fbound of Halo-PR in U2OS cells. In kind it is cell-based. Conditions: 1 μM antagonist, absence or presence of cognate agonist.

For `C[C@]12CC[C@@H]3c4ccc(O)cc4C[C@@H](CCCCCCCCC[S+]([O-])CCCC(F)(F)C(F)(F)F)[C@H]3[C@@H]1CC[C@@H]2O` (some centres unmarked), the “ER binding times (relative residence times)” value on ER was “longer binding times”.

In the case of `CC#C[C@]1(O)CC[C@H]2[C@@H]3CCC4=CC(=O)CCC4=C3[C@@H](c3ccc(N(C)C)cc3)C[C@@]21C` [mifepristone], at PR, the “change in chromatin binding (fbound) of PR” value is on record as “behaves similarly to ER antagonists”.
